Legend:
[1] = target: serotonin transporter (SERT) (UniProt A7KAX8); experiment: Competition binding with [3H]citalopram at the serotonin transporter; conditions: read-out: SERT (binding, Table 6); unit inferred
[2] = target: dopamine transporter (DAT) (UniProt Q9GJT6); experiment: Competition binding with [3H]WIN 35,428 at the dopamine transporter; conditions: read-out: DAT (binding, Table 6); unit inferred

Chains of the proteins cited; added tags and fusions are not shown. Residues count along the entry.
UniProt A7KAX8, 1-630: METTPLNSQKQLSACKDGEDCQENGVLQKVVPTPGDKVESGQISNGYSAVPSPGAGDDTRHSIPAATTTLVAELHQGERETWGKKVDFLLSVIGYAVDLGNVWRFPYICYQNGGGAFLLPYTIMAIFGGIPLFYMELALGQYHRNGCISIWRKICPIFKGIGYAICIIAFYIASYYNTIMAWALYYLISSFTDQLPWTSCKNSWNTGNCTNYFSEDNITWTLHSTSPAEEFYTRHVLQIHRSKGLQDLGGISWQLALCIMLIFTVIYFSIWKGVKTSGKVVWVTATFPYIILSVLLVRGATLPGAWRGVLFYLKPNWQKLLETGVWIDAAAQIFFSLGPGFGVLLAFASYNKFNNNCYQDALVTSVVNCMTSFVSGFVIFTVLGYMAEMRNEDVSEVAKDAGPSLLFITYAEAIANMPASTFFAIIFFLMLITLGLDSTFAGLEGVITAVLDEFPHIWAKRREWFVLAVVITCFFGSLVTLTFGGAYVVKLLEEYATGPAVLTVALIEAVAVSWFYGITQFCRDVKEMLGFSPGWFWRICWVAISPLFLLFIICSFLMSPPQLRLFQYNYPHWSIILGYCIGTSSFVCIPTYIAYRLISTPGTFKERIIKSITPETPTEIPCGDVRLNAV
UniProt Q9GJT6, whole entry: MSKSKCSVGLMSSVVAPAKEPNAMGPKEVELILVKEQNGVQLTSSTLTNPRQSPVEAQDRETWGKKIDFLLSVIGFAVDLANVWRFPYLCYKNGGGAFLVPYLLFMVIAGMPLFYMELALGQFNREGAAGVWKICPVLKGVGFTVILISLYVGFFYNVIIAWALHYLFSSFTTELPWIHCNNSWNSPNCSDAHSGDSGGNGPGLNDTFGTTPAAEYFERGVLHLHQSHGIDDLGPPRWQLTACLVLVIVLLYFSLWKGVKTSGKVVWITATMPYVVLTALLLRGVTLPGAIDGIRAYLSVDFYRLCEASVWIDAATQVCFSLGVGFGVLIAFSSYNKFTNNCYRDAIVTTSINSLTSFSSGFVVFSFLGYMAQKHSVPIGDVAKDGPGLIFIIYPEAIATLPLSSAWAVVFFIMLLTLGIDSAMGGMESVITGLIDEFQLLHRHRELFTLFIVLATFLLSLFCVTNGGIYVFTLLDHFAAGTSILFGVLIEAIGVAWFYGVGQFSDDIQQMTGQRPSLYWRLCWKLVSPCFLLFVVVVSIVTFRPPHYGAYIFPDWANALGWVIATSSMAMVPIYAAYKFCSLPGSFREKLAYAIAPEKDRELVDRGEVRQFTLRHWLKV

## COC(=O)C1C(c2ccc(F)cc2)CC2CCC1N2CCN1C(=O)C=CC1=O (single isomer, unassigned)
[1]
  IC50: 3.6 µM
[2]
  IC50: 120 nM

— patent publication US7439264B2, “Therapeutic compounds” (President and Fellows of Harvard College, priority 2002, dated 2008)
